In paper PMC4140853 (PLoS Pathogens, 2014) one finds Kd data, which are given here for one molecule.

The target of assay [1] is T1, EBV gp42 wild type, soluble (residues 33-223) (Epstein-Barr virus, UniProt P03205 33-223).
T1 construct: also called gp42 w.t; wt gp42; source: High Five insect cells (baculovirus), secreted, purified (Talon or Ni-NTA, Superdex 200)
T1 sequence: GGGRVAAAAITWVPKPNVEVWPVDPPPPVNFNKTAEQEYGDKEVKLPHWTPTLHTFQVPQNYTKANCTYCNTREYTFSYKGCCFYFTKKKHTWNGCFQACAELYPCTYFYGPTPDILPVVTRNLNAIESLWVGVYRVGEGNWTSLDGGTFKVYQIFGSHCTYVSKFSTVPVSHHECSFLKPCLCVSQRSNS
As to the kind of experiment: BLI. The settings on record: both partners purified.

The target in assay [2] is T2, preformed EBV gHgL/gp42 complex (wild-type gp42) (Epstein-Barr virus, UniProt P03231;P03212;P03205).
T2 construct: also called gHgL/gp42 wt; gHgL/gp42 complexes; source: purified gHgL (SF+ cells) and gp42 (High Five cells) mixed, complex isolated by gel filtration chromatography; copies: + +
Kind of assay: BLI. The conditions noted are these: both partners purified.

B1: HLA-DQ2 (A1*0501/B1*0201) with the CLIP1 peptide covalently linked to the beta chain, soluble, Fos-Jun leucine zipper (peptide-MHC)
chain 1: EDIVADHVASYGVNLYQSYGPSGQYTHEFDGDEQFYVDLGRKETVWCLPVLRQFRFDPQFALTNIAVLKHNLNSLIKRSNSTAATNEVPEVTVFSKSPVTLGQPNILICLVDNIFPPVVNITWLSNGHSVTEGVSETSFLSKSDHSFFKISYLTLLPSAEESYDCKVEHWGLDKPLLKHWEPEIPAPMSELTE
chain 2: RDSPEDFVYQFKGMCYFTNGTERVRLVSRSIYNREEIVRFDSDVGEFRAVTLLGLPAAEYWNSQKDILERKRAAVDRVCRHNYQLELRTTLQRRVEPTVTISPSRTEALNHHNLLVCSVTDFYPAQIKVRWFRNDQEETAGVVSTPLIRNGDWTFQILVMLEMTPQRGDVYTCHVEHPSLQSPITVEWRAQSESAQSK
chain 3: PVSKMRMATPLLMQA
modifications: biotin on the C-terminal BirA site (enzymatic, for the BLI experiments)
For orientation: Kd means the equilibrium constant for the complex coming apart. A lower Kd goes with a tighter complex. On to B1, for which the Kd worked out at 53 nM in assay [1] and 120 nM in assay [2].
